Measured values published in patent US20190070268A1, “ABUSE-DETERRENT PHARMACEUTICAL COMPOSITIONS” (priority 2016, published 2019).

Test system: laccase
Conditions: 1000 mg/L opioid, 10 Units laccase per ml, NaPi Buffer pH 7 50 mM

CN1CC[C@]23c4c5ccc(O)c4O[C@H]2C(=O)CC[C@H]3[C@H]1C5 [hydromorphone]
oxygen concentration / laccase activity: showed laccase activity
